Measurements published in ChEMBL document CHEMBL1158639, “Synthesis and in vivo evaluation of [11C]MPTQ: a potential PET tracer for alpha2A-adrenergic receptors” (Bioorg Med Chem Lett, 2010).

Chains of the proteins cited; added tags and fusions are not shown.
UniProt P08913, whole entry: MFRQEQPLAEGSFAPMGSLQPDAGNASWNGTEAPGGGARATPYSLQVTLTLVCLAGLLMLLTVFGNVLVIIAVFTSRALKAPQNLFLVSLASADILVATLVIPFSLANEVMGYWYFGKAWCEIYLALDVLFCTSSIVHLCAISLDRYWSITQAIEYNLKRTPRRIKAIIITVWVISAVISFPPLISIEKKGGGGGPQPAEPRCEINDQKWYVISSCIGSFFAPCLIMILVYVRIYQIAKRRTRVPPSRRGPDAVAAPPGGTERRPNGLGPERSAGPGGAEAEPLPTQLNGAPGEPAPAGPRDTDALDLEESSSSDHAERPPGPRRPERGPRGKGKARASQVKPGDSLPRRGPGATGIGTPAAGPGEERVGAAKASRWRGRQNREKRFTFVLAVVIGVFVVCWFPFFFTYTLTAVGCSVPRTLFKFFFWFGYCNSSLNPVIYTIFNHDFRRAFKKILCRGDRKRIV

Legend:
[1] = Ratio of drug level in cuadate putamen to cerebellum in baboon at 4.43 mCi, iv; assay type: ADME, tissue-based; conditions: papio anubis, in vivo
[2] = Ratio of drug level in thalamus to cerebellum in baboon at 4.43 mCi, iv; assay type: ADME, tissue-based; conditions: papio anubis, in vivo
[3] = Ratio of drug level in cingulate cortex to cerebellum in baboon at 4.43 mCi, iv; assay type: ADME, tissue-based; conditions: papio anubis, in vivo
[4] = Ratio of drug level in hippocampus to cerebellum in baboon at 4.43 mCi, iv; assay type: ADME, tissue-based; conditions: papio anubis, in vivo
[5] = Ratio of drug level in temporal cortex to cerebellum in baboon at 4.43 mCi, iv; assay type: ADME, tissue-based; conditions: papio anubis, in vivo
[6] = Ratio of drug level in occipital cortex to cerebellum in baboon at 4.43 mCi, iv; assay type: ADME, tissue-based; conditions: papio anubis, in vivo
[7] = target: Alpha-2A adrenergic receptor (Homo sapiens, UniProt P08913); assay: Displacement of [3H]rauwolscine from adrenergic alpha2A receptor

Ratio [1] | Ratio [2] | Ratio [3] | Ratio [4] | Ratio [5] | Ratio [6] | Ki [7] [nM] | SMILES
1.4 | 1.66 | 1.34 | 1.52 | 1.28 | 0.9 |  | [11CH3]N1CC2C(=NO[C@H]2CN2CCN(C/C=C/c3ccccc3)CC2)c2ccccc21 (some centres not stated)
 |  |  |  |  |  | 1.6 | CN1CC2C(=NO[C@H]2CN2CCN(C/C=C/c3ccccc3)CC2)c2ccccc21 (some centres not stated)
